Tested on: panel of 60 different cancer cell lines
Assay: NIH screening assay, panel of 60 cancer cell lines

O=C(O)c1cccs1 [2-TH acid, 2-thiophenecarboxylic acid]
inhibition of cancer cell lines: can inhibit a panel of 60 different cancer cell lines
